Test results published in publication PMC5819781, “A generic HTS assay for kinase screening: Validation for the isolation of an engineered malate kinase” (PLoS ONE, 2018).

Experiments:
[1] = system: Nc1ncnc2c1ncn2[C@@H]1O[C@H](COP(=O)(O)OP(=O)(O)OP(=O)(O)O)[C@@H](O)[C@H]1O; experiment: purified protein; conditions: Mg2+
O=C(O)CC(O)C(=O)O = experiment: purified protein; conditions: ATP, Mg2+ active site (substrate pocket)
[2] = target: aspartate kinase III (LysC) (Escherichia coli, UniProt P08660, V115A/E119S/E434V)
purified protein = substrate: Nc1ncnc2c1ncn2[C@@H]1O[C@H](COP(=O)(O)OP(=O)(O)OP(=O)(O)O)[C@@H](O)[C@H]1O; experiment: purified protein; conditions: Mg2+; remark: listed apart in the source
[3] = Ser39 and Thr45 side-chains to the 2-OH group in the model

| Molecule | Km [1] [µM] | Km (O=C(O)CC(O)C(=O)O) [µM] | kcat (O=C(O)CC(O)C(=O)O) [s⁻¹] | kcat/Km (O=C(O)CC(O)C(=O)O) [M⁻¹ s⁻¹] | further results |
| --- | --- | --- | --- | --- | --- |
| aspartate kinase III (LysC) (Escherichia coli K-12; E119C/V115A) | 350 | 10290 | 5.5 | 530 |  |
| O=C(O)CC(O)C(=O)O (centres unmarked) [(L)-malate] |  |  |  |  | ADP/NAD+ acid/alkali end-point kinase assay on crude extracts of the isolated cl [2]: the best mutant, LysC V115A:E119S:E434V exhibited strong substrate selectivity for (L)-malate compared to (L)-aspartate |
| aspartate kinase III (LysC) (Escherichia coli K-12; E119S/E434V/V115A) | 670 |  |  |  |  |
| aspartate kinase III (LysC) (Escherichia coli K-12; E119S/E434V) |  | 13110 | 1.59 | 120 |  |
| aspartate kinase III (LysC) (Escherichia coli K-12; E119S/V115A) | 410 |  |  |  | Km (O=C(O)CC(O)C(=O)O; [3]): 9500 µM; kcat (O=C(O)CC(O)C(=O)O; [3]): 4.96 s⁻¹; kcat/Km (O=C(O)CC(O)C(=O)O; [3]): 520 M⁻¹ s⁻¹ |
| aspartate kinase III (LysC) (Escherichia coli K-12) (protein) SEIVVSKFGGTSVADFDAMNRSADIVLSDANVRLVVLSASAGITNLLVALAEGLEPGERFEKLDAIRNIQFAILERLRYPNVIREEIERLLENITVLAEAAALATSPALTDELVSHGELMSTLLFVEILRERDVQAQWFDVRKVMRTNDRFGRAEPDIAALAELAALQLLPRLNEGLVITQGFIGSENKGRTTTLGRGGSDYTAALLAEALHASRVDIWTDVPGIYTTDPRVVSAAKRIDEIAFAEAAEMATFGAKVLHPATLLPAVRSDIPVFVGSSKDPRAGGTLVCNKTENPPLFRALALRRNQTLLTLHSLNMLHSRGFLAEVFGILARHNISVDLITTSEVSVALTLDTTGSTSTGDTLLTQSLLMELSALCRVEVEEGLALVALIGNDLSKACGVGKEVFGVLEPFNIRMICYGASSHNLCFLVPGEDAEQVVQKLHSNLFE |  |  |  |  | Km (purified protein): 330 µM |
